Data on eleven compounds can be found in ChEMBL document CHEMBL1131838, “8-acenaphthen-1-yl-1-phenyl-1,3,8-triaza-spiro[4.5]decan-4-one derivatives as orphanin FQ receptor agonists” (Bioorg Med Chem Lett, 1999).

Structures are written as SMILES.

Test [1] addresses Kappa-type opioid receptor (Homo sapiens, UniProt P41145). Nature of the test: Displacement of [3H]naloxone from human kappa opioid receptor. (In a radioligand displacement assay an active substance lowers the binding of a labelled ligand.)
The next test concerns the target Mu-type opioid receptor (Homo sapiens, UniProt P35372). Nature of the test: Displacement of [3H]naloxone from human mu opioid receptor.
The next test deals with Nociceptin receptor (Homo sapiens, UniProt P41146). Nature of the test: Displacement of [3H]-orphanin FQ from human OrphaninFQ (hOFQ) receptor.
Test [2] has as its target Delta-type opioid receptor (Homo sapiens, UniProt P41143). In words: Displacement of [3H]-naloxone from Opioid receptor delta 1.

Consider `O=C1NCN(c2cccc(Cl)c2)C12CCN(C1Cc3cccc4cccc1c34)CC2` (centres undefined), for which the Log Ki in test [1] was -7.3; on Mu-type opioid receptor, -7.7; on Nociceptin receptor, -8.9; in test [2] it was -6.8.
For `O=C1NCN(c2ccccc2F)C12CCN(C1Cc3cccc4cccc1c34)CC2` (centres undefined), the Log Ki in test [1] was -6.8; at Mu-type opioid receptor, -6.4; on Nociceptin receptor it was -7.4.
For `O=C1NCN(c2ccc(F)cc2)C12CCN(C1Cc3cccc4cccc1c34)CC2` (centres undefined), the Log Ki was -7.2 in test [1], -7.6 on Mu-type opioid receptor, -8.8 at Nociceptin receptor and under -6.3 in test [2].
With `O=C1NCN(c2cccc(C(F)(F)F)c2)C12CCN(C1Cc3cccc4cccc1c34)CC2` (centres undefined), the Log Ki on Mu-type opioid receptor was -8.1; at Nociceptin receptor, -8.
For the compound `Cc1cc(C)cc(N2CNC(=O)C23CCN(C2Cc4cccc5cccc2c45)CC3)c1` (centres undefined), the values for the Log Ki at Mu-type opioid receptor and at Nociceptin receptor were -7.7 and -8, respectively.
Regarding `Cc1cccc(N2CNC(=O)C23CCN(C2Cc4cccc5cccc2c45)CC3)c1` (centres undefined), the Log Ki in test [1] was -7.7; on Mu-type opioid receptor, -8; at Nociceptin receptor, -8.4; in test [2] it was under -6.3.
With `O=C1NCN(c2ccc(Cl)cc2)C12CCN(C1Cc3cccc4cccc1c34)CC2` (centres undefined), the Log Ki in test [1] was -7.1; at Mu-type opioid receptor it was -7.5; on Nociceptin receptor it was -8.8; in test [2], under -6.3.
As to `O=C1NCN(c2cccc(F)c2)C12CCN(C1Cc3cccc4cccc1c34)CC2` (centres undefined), the Log Ki is -7.9 in test [1], -8.4 at Mu-type opioid receptor, -9.5 on Nociceptin receptor and -6.8 in test [2].
As for `COc1cccc(N2CNC(=O)C23CCN(C2Cc4cccc5cccc2c45)CC3)c1` (centres undefined), the Log Ki is -7.4 on Mu-type opioid receptor and -7.8 at Nociceptin receptor.
Turning to `O=C1NCN(c2cccc(Br)c2)C12CCN(C1Cc3cccc4cccc1c34)CC2` (centres undefined), the Log Ki in test [1] was -7.1; at Mu-type opioid receptor it was -7.9; on Nociceptin receptor, -8.4; in test [2] it was under -6.3.
On to `COc1ccc(N2CNC(=O)C23CCN(C2Cc4cccc5cccc2c45)CC3)cc1` (centres undefined), for which, at Nociceptin receptor, the Log Ki was -7.
